Tested on: writhing (acetic acid)
Experiment: Analgesic effect, acetic acid writhing test on mice
Conditions: mouse, in vivo, po
Procedure: Method: acetic acid "writhing effect" on mice
To mice weighing 20-25 g. a 0.75% acetic acid solution is administered intraperitoneally in a volume of 20 ml./kg. According to the method of Neubold the characteristic writhing reactions are counted for each animal between the 5th and 10th minute and the total writhing number obtained for this 5 minutes' period is expressed as the percentage of the control group. The test compound is administered orally, the test is carried out by using a pre-treatment period of 60 minutes and 10 animals are used for each dose.

- Therapeutical index (writhing test): 2.8
Compound: CC(=O)Nc1ccc(O)cc1 [Paracetamol, reference compound]
